Where “and” joins values, the source holds several entries; their conditions need not be identical. Equal values may be shown once.
What was measured:
[1] = system: glutamatergic pyramidal neurons from mouse layer five neocortex; experiment: Current-clamp recording in brain slices, action-potential firing; format: cell-based; details: for effect on action-potential firing, pyramidal neurons: 100 µM carbamazepine; for Cumulative number of action potentials fired by each cell on increasing current injections / WT Cortical pyramidal neurons APs/1s: 100 μM; for Cumulative number of action potentials fired by each cell on increasing current injections: WT cortical pyramidal neurons; for WT Cortical pyramidal neurons APs/1s: individual neurons
Protocol: (§1) Parasagittal cortical brain slices were prepared from> P21 mice using standard procedures (adapted from Tai et al., PNAS 2014). Briefly, the mouse was deeply anaesthetized with isoflurane and decapitated. The brain was removed and placed into chilled artificial cerebrospinal fluid (aCSF) solution containing (in mM): 125 NaCl, 25 NaHCO3, 2.5 KCl, 1.25 NaH2PO4, 2 CaCl2, 2 MgCl2, 10 d-glucose, pH 7.3, osmolarity adjusted to ~306 mOsm using sucrose. All solutions were saturated with 95% O2 and 5% CO2 constantly perfused with 95% O2/5% CO2. Slices with a thickness of 400 µm were prepared using a vibratome (Ted Pella, Inc). Following sectioning, the slices were placed in a holding chamber and incubated in a water bath at 34 °C for 15 min. The brain slices were removed from the water bath and held at room temperature for 60 min prior to recording.
(§2) All experiments involving rodent subjects were performed in accordance with the guidelines of the Canadian Council on Animal Care (CCAC). Following a 60-min incubation at room temperature, a brain slice was selected and placed on the stage of an upright microscope (SliceScope Pro 2000, Scientifica). The slice was constantly perfused with room temperature aCSF, containing 0.1% DMSO as a vehicle control, and oxygenated with 95% O2/5% CO2.The slice was visualized using brightfield microscopy, and a healthy neuron was selected from neocortical layer 5. […] Stimulation was applied in current-clamp mode, and consisted of a series of 1000ms square pulses, beginning at –20 pA and increasing by +20 pA increments (3000ms between pulses).
(§3) The slice was incubated in circulating compound for 10 min before repeating the series of square pulse stimulations. Working stock solutions were prepared in DMSO at a concentration of 20 mM.
(§4) All data analysis was done offline using ClampFit 10.7 (Molecular Devices). Data are presented as a mean ± SEM. For each sweep, the number of evoked APs was counted, and plotted as a function of current injection (beginning with –20 pA). […] Statistical significance was assessed using paired, two-way, student’s t-test applied at each current injection level with significance considered p < 0.05.

The chains behind the UniProt entries cited, without tags or fusion partners.
UniProt Q14524, whole entry: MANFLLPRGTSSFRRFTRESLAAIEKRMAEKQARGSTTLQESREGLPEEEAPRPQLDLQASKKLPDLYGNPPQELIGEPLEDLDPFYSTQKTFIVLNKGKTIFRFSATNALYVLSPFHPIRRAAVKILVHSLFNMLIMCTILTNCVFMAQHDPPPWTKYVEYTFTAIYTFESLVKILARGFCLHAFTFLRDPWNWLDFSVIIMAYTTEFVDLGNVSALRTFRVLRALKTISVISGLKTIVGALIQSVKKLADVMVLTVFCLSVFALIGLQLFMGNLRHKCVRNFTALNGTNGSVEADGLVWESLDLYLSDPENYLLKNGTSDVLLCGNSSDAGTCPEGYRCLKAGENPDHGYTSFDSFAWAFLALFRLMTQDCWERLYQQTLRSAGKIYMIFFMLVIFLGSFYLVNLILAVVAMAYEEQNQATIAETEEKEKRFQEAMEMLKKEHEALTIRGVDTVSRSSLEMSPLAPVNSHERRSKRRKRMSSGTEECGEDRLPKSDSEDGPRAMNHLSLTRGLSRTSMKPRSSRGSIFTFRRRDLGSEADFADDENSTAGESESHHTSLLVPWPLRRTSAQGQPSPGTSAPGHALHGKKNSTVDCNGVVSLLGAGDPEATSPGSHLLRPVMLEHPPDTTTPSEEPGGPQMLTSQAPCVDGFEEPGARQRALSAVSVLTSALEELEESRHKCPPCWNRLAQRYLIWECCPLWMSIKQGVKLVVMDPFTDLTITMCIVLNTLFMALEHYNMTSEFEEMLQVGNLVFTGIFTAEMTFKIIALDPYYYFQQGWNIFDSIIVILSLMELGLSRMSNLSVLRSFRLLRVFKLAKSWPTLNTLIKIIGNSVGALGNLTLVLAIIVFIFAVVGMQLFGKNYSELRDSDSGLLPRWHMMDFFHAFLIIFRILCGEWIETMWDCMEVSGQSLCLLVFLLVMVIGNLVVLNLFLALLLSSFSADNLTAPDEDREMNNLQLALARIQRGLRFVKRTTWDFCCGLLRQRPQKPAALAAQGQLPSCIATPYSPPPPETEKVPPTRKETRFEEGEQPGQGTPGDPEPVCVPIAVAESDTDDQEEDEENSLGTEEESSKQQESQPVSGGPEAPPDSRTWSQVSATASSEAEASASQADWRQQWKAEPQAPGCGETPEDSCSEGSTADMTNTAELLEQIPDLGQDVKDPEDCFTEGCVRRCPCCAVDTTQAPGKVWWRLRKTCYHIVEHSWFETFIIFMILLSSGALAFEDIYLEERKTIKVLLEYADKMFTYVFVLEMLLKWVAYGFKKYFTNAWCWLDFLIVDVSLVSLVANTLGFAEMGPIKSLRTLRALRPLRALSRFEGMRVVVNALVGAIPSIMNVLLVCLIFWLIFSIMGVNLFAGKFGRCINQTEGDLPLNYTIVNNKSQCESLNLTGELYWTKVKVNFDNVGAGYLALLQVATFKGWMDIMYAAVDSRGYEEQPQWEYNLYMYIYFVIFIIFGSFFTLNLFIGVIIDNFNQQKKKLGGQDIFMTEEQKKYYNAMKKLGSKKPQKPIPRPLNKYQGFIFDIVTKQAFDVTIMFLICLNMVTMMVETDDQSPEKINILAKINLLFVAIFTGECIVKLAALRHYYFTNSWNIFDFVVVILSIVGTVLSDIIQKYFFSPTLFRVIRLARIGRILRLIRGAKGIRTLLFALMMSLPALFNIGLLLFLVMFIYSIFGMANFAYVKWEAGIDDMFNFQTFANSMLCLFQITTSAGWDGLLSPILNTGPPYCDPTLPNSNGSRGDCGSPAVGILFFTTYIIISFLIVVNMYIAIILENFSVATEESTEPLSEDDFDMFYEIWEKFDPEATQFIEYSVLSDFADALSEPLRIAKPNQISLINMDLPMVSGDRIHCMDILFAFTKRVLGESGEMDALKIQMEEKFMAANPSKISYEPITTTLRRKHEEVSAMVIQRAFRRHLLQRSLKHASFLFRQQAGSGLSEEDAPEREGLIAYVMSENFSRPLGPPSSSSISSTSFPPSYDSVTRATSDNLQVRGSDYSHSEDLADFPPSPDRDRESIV

[2] = system: fast spiking interneurons; experiment: as above; format: cell-based, mouse; details: for effect on action-potential firing, fast-spiking interneurons: 100 µM carbamazepine; for Fast spiking interneurons APs/1s / Cumulative number of action potentials fired by each cell on increasing current injections: 100 μM; for Fast spiking interneurons APs/1s: individual neurons; for Cumulative number of action potentials fired by each cell on increasing current injections: fast spiking interneurons
Protocol: as §1, §2, §3, §4

hNaV1.1 = target: T1, hNaV1.1 (Homo sapiens, UniProt P35498); experiment: Qube 384 automated patch-clamp, inactivated-state inhibition; format: cell-based; details: Vh -45 mV, HEK-293
T1 construct: expression vector containing the full-length cDNA coding for specific human and mouse sodium channel α-subunit; expressed in transfected cells
Excerpt: (§5) All of the cell lines tested negative for mycoplasma.
(§6) Inorm(CPD)=(ICPD−Icontrol)/(ITTX−Icontrol).

hNaV1.5 = target: T2, hNaV1.5 (Homo sapiens, UniProt Q14524); experiment: as above; format: cell-based; details: Vh -60 mV, HEK-293
T2 construct: expression vector containing the full-length cDNA coding for specific human and mouse sodium channel α-subunit; expressed in transfected cells
Excerpt: as §5, §6

`NC(=O)N1c2ccccc2C=Cc2ccccc21` [carbamazepine, Carbamazepine] was tested. Which “effect on action-potential firing, pyramidal neurons” value [1] did it give?
The value was “reduced action-potential spiking”.

What about the “effect on action-potential firing, pyramidal neurons” value ([1]; listed as Carbamazepine) of the same compound?
The value was “significantly inhibited action-potential firing”.

What about the “Cumulative number of action potentials fired by each cell on increasing current injections” value ([1]; up to current injected 0 pA) of the same compound?
The value was 0.

What about the “Cumulative number of action potentials fired by each cell on increasing current injections” value ([1]; up to current injected 20 pA) of the same compound?
The value was 0.

What about the “Cumulative number of action potentials fired by each cell on increasing current injections” value ([1]; up to current injected 40 pA) of the same compound?
Its value is 0.

And the “Cumulative number of action potentials fired by each cell on increasing current injections” value ([1]; up to current injected -20 pA)?
Its value is 0.

And the “WT Cortical pyramidal neurons APs/1s” value ([1]; current injected 0 pA)?
Its value is 0 APs/1s.

And the “WT Cortical pyramidal neurons APs/1s” value ([1]; current injected 20 pA)?
Its value is 0 APs/1s.

What about the “WT Cortical pyramidal neurons APs/1s” value ([1]; current injected 40 pA) of the same compound?
Its value is 0 APs/1s.

And the “WT Cortical pyramidal neurons APs/1s” value ([1]; current injected 60 pA)?
Its value is 0 APs/1s and 3 APs/1s and 1 APs/1s (2×).

And the “WT Cortical pyramidal neurons APs/1s” value ([1]; current injected 80 pA)?
The value was 2 APs/1s (2×) and 5 APs/1s and 3 APs/1s.

What about the “WT Cortical pyramidal neurons APs/1s” value ([1]; current injected 100 pA) of the same compound?
The value was 2 APs/1s and 7 APs/1s and 3 APs/1s and 4 APs/1s.

And the “WT Cortical pyramidal neurons APs/1s” value ([1]; current injected 120 pA)?
Its value is 3 APs/1s (2×) and 8 APs/1s and 5 APs/1s.

And the “WT Cortical pyramidal neurons APs/1s” value ([1]; current injected 140 pA)?
Its value is 3 APs/1s (2×) and 10 APs/1s and 5 APs/1s.

And the “WT Cortical pyramidal neurons APs/1s” value ([1]; current injected 160 pA)?
The value was 4 APs/1s and 11 APs/1s and 3 APs/1s and 5 APs/1s.

And the “WT Cortical pyramidal neurons APs/1s” value ([1]; current injected 180 pA)?
Its value is 3 APs/1s (2×) and 12 APs/1s and 5 APs/1s.

And the “WT Cortical pyramidal neurons APs/1s” value ([1]; current injected 200 pA)?
The value was 4 APs/1s (2×) and 13 APs/1s and 5 APs/1s.

What about the “WT Cortical pyramidal neurons APs/1s” value ([1]; current injected 220 pA) of the same compound?
The value was 5 APs/1s (2×) and 13 APs/1s and 4 APs/1s.

And the “WT Cortical pyramidal neurons APs/1s” value ([1]; current injected 240 pA)?
Its value is 4 APs/1s and 14 APs/1s and 3 APs/1s and 5 APs/1s.

And the “WT Cortical pyramidal neurons APs/1s” value ([1]; current injected 260 pA)?
The value was 5 APs/1s (2×) and 15 APs/1s and 2 APs/1s.

And the “WT Cortical pyramidal neurons APs/1s” value ([1]; current injected 280 pA)?
Its value is 5 APs/1s (2×) and 15 APs/1s and 2 APs/1s.

What about the “WT Cortical pyramidal neurons APs/1s” value ([1]; current injected 300 pA) of the same compound?
The value was 5 APs/1s (2×) and 16 APs/1s.

And the “WT Cortical pyramidal neurons APs/1s” value ([1]; current injected 320 pA)?
The value was 4 APs/1s and 16 APs/1s and 5 APs/1s.

What about the “WT Cortical pyramidal neurons APs/1s” value ([1]; current injected 340 pA) of the same compound?
Its value is 5 APs/1s and 16 APs/1s and 4 APs/1s.

And the “WT Cortical pyramidal neurons APs/1s” value ([1]; current injected 360 pA)?
Its value is 15 APs/1s and 5 APs/1s.

What about the “WT Cortical pyramidal neurons APs/1s” value ([1]; current injected 380 pA) of the same compound?
Its value is 15 APs/1s and 5 APs/1s.

What about the “WT Cortical pyramidal neurons APs/1s” value ([1]; current injected 400 pA) of the same compound?
The value was 14 APs/1s and 5 APs/1s.

And the “WT Cortical pyramidal neurons APs/1s” value ([1]; current injected 420 pA)?
Its value is 14 APs/1s and 4 APs/1s.

And the “WT Cortical pyramidal neurons APs/1s” value ([1]; current injected 440 pA)?
The value was 11 APs/1s and 4 APs/1s.

What about the “WT Cortical pyramidal neurons APs/1s” value ([1]; current injected -20 pA) of the same compound?
The value was 0 APs/1s.

What about the “effect on action-potential firing, fast-spiking interneurons” value [2] of the same compound?
The value was “markedly reduced firing”.

And the “effect on action-potential firing, fast-spiking interneurons” value ([2]; listed as Carbamazepine)?
The value was “significantly inhibited action-potential firing”.

And the “Fast spiking interneurons APs/1s” value ([2]; 300 pA current injected, listed as CBZ)?
The value was 26 APs/1s and 30 APs/1s and 6 APs/1s.

What about the “Fast spiking interneurons APs/1s” value ([2]; current injected 0 pA) of the same compound?
Its value is 0 APs/1s.

What about the “Fast spiking interneurons APs/1s” value ([2]; current injected 20 pA) of the same compound?
The value was 0 APs/1s.

And the “Fast spiking interneurons APs/1s” value ([2]; current injected 40 pA)?
The value was 0 APs/1s.

What about the “Fast spiking interneurons APs/1s” value ([2]; current injected 60 pA) of the same compound?
The value was 0 APs/1s.

What about the “Fast spiking interneurons APs/1s” value ([2]; current injected 80 pA) of the same compound?
Its value is 0 APs/1s.

And the “Fast spiking interneurons APs/1s” value ([2]; current injected 100 pA)?
The value was 0 APs/1s.

And the “Fast spiking interneurons APs/1s” value ([2]; current injected 120 pA)?
The value was 1 APs/1s (2×) and 0 APs/1s.

And the “Fast spiking interneurons APs/1s” value ([2]; current injected 140 pA)?
Its value is 2 APs/1s (2×) and 1 APs/1s.

What about the “Fast spiking interneurons APs/1s” value ([2]; current injected 160 pA) of the same compound?
Its value is 6 APs/1s (2×) and 1 APs/1s.

What about the “Fast spiking interneurons APs/1s” value ([2]; current injected 180 pA) of the same compound?
Its value is 10 APs/1s and 9 APs/1s and 1 APs/1s.

And the “Fast spiking interneurons APs/1s” value ([2]; current injected 200 pA)?
Its value is 15 APs/1s and 16 APs/1s and 1 APs/1s.

What about the “Fast spiking interneurons APs/1s” value ([2]; current injected 220 pA) of the same compound?
The value was 15 APs/1s and 17 APs/1s and 2 APs/1s.

And the “Fast spiking interneurons APs/1s” value ([2]; current injected 240 pA)?
The value was 20 APs/1s and 21 APs/1s and 2 APs/1s.

What about the “Fast spiking interneurons APs/1s” value ([2]; current injected 260 pA) of the same compound?
Its value is 23 APs/1s and 21 APs/1s and 3 APs/1s.

And the “Fast spiking interneurons APs/1s” value ([2]; current injected 280 pA)?
Its value is 26 APs/1s and 24 APs/1s and 3 APs/1s.

What about the “Fast spiking interneurons APs/1s” value ([2]; current injected 300 pA) of the same compound?
Its value is 26 APs/1s and 30 APs/1s and 6 APs/1s.

And the “Fast spiking interneurons APs/1s” value ([2]; current injected 320 pA)?
The value was 28 APs/1s and 27 APs/1s and 6 APs/1s.

And the “Fast spiking interneurons APs/1s” value ([2]; current injected 340 pA)?
The value was 28 APs/1s and 32 APs/1s and 7 APs/1s.

What about the “Fast spiking interneurons APs/1s” value ([2]; current injected 360 pA) of the same compound?
The value was 29 APs/1s and 32 APs/1s and 9 APs/1s.

And the “Fast spiking interneurons APs/1s” value ([2]; current injected 380 pA)?
Its value is 30 APs/1s and 10 APs/1s.

What about the “Fast spiking interneurons APs/1s” value ([2]; current injected 400 pA) of the same compound?
Its value is 27 APs/1s and 9 APs/1s.

What about the “Fast spiking interneurons APs/1s” value ([2]; current injected 420 pA) of the same compound?
Its value is 31 APs/1s and 9 APs/1s.

And the “Fast spiking interneurons APs/1s” value ([2]; current injected 440 pA)?
The value was 30 APs/1s and 10 APs/1s.

What about the “Fast spiking interneurons APs/1s” value ([2]; current injected -20 pA) of the same compound?
Its value is 0 APs/1s.

What about the “Cumulative number of action potentials fired by each cell on increasing current injections” value ([2]; up to current injected 0 pA) of the same compound?
The value was 0.

And the “Cumulative number of action potentials fired by each cell on increasing current injections” value ([2]; up to current injected 20 pA)?
Its value is 0.

What about the “Cumulative number of action potentials fired by each cell on increasing current injections” value ([2]; up to current injected 40 pA) of the same compound?
The value was 0.

What about the “Cumulative number of action potentials fired by each cell on increasing current injections” value ([2]; up to current injected 60 pA) of the same compound?
Its value is 0.

What about the “Cumulative number of action potentials fired by each cell on increasing current injections” value ([2]; up to current injected 80 pA) of the same compound?
Its value is 0.

What about the “Cumulative number of action potentials fired by each cell on increasing current injections” value ([2]; up to current injected 100 pA) of the same compound?
Its value is 0.

And the “Cumulative number of action potentials fired by each cell on increasing current injections” value ([2]; up to current injected -20 pA)?
Its value is 0.

What does the source list for `Cc1cc(S(=O)(=O)Nc2cscn2)c(F)cc1N(C)[C@H]1CCN(Cc2ccccc2)C1` [NBI-921352]?
IC50 (hNaV1.1): 39 µM; IC50 (hNaV1.5): > 30 µM
